Columns and labels:
[1] = test system: midbrain neurons derived from normal mice and D2R−/− mice; assay: Differentiation of midbrain neurons into dopaminergic neural cells (TH immunostaining: number of TH-positive cells, neurite length, neurite number); type: cell-based
Description: Midbrain neurons derived from normal mice and D2R−/− mice were treated with each of EGF, EGF+haloperidol, EGF+AG1478 and EGF+PD98059, and then stained with TH by an immunostaining technique. Then, the number of TH-positive cells, the length of neurites and the number of neurites in the midbrain neurons were compared between EGF, EGF+haloperidol, EGF+AG1478 and EGF+PD98059 to determine the abilities to induce differentiation into dopaminergic neural cells.
Then, the number of TH-positive cells, the length of neurites and the number of neurites in the midbrain neurons were compared to determine the abilities to induce differentiation into dopaminergic neural cells.

ERK = assay: Phosphorylation of ERK in midbrain neurons; type: cell-based, mice

CCCN1CCC[C@@H]2Cc3n[nH]cc3C[C@H]21 [quinpirole]
synergistic effect with EGF on the increase in the number of dopaminergic neural cells [1]: no synergistic effect | phosphorylation of ERK by the agent (ERK): 194%

From US20160040126A1, “REGULATION OF DIFFERENTIATION INTO DOPAMINERGIC NEURONS BY METALLOPROTEASE” (Korea University Research and Business Foundation, priority 2012, published 2016)
